Molecular target: μ-opioid receptor (Cavia porcellus, UniProt A0ACM8Q262)
Test: Evaluation of antagonist activity at the μ-opioid receptor, guinea pig ileum test (tissue model, responses to DAMGO)
Details: read-out: Responses to DAMGO (1.0E−07 M) in the presence of increasing concentrations of the compounds (% control response)
Procedure: Evaluation for Agonist and Antagonist Activities at the […] Receptors in the Guinea Pig Ileum
Agonist/antagonist activity at the μ-opioid receptor was determined using the well known guinea pig ileum test. Briefly, an a section of ileum was placed in a stabilized solution in a tensed state. Transducers were used to measure changes in tension upon electrical stimulation to the tissue before and after challenge with a potential agonist/antagonist Using a control, constriction inhibition, and constriction inhibition cancellation, may be measured.

By UniProt entry, the sequences of proteins in these tests, tags left out. Residues count along the entry.
UniProt A0ACM8Q262, 1-400: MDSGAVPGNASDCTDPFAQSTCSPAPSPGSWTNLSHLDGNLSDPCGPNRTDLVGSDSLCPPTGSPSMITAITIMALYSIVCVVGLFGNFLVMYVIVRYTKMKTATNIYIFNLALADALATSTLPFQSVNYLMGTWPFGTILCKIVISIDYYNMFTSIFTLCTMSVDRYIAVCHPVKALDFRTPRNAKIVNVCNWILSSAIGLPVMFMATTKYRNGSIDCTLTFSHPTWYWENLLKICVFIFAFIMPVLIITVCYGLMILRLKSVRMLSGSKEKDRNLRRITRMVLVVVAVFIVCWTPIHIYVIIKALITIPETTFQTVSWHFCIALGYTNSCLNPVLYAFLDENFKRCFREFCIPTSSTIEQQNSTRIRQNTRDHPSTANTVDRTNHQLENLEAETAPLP

C=CCN1CC[C@]23c4c5ccc(O)c4O[C@H]2C(=O)CC[C@@]3(O)[C@H]1C5 [naloxone, reference compound]
remaining activity at 0.1 µM (compound 1.0E^−07 M): -6%
remaining activity at 0.02 µM (compound 2.0E^−08 M): 51%
remaining activity at 0.005 µM (compound 5.0E^−09 M): 85%

Reference: patent US20080234306A1, “N-Oxides of 4,5-Epoxy-Morphinanium Analogs” (Progenics Pharmaceuticals, Inc., priority 2006, published 2008)
